Our source for the activity, negative = inhibition values is PubChem BioAssay AID504374 (National Center for Advancing Translational Sciences (NCATS), 2011).

By UniProt entry, the sequences of proteins in these tests, tags left out.
UniProt Q01196, whole entry, looked up: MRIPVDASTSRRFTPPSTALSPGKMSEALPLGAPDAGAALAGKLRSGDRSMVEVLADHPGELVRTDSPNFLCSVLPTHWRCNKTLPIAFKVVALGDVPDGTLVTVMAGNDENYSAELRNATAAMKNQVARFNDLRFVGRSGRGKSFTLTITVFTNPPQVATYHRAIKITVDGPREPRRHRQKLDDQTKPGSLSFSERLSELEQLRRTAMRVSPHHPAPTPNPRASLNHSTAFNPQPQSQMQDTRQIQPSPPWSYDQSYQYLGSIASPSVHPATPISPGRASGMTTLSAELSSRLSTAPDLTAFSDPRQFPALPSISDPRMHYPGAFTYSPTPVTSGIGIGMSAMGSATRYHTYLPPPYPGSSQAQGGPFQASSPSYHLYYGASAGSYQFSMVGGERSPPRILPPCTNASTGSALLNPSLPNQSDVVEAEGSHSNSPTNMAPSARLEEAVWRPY
UniProt Q13951, whole entry, looked up: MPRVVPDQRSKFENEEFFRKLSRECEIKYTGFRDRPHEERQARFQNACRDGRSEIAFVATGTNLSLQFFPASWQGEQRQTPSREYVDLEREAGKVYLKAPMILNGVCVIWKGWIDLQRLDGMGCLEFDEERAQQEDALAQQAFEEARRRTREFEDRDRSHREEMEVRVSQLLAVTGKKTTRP

The list shows a part of the results, in another mix than the full data. Results filed as inconclusive are left out. Active and inactive are the calls of the source. The call rests on the fitted dose curve; in most records, active means well fitted inhibition curve with a large enough effect; inconclusive means small, poorly fitted or top-dose-only effect, or effect the other way; inactive means flat fitted curve, though single readings scatter.
On the % scale 0 is the no-effect control and ±100 the full control effect.

This assay concerns the target Runt-related transcription factor 1 (Homo sapiens) + Core-binding factor subunit beta (Homo sapiens) (UniProt Q01196+Q13951). Description: qHTS Assay for Compounds Blocking the Interaction Between CBF-beta and RUNX1 for the Treatment of Acute Myeloid Leukemia: Hit Validation. Further: nearly all actives have a fitted effect of over 60% in size. The following applies: AlphaScreen CBFb-His/RUNX1-biotin binding; at 59.8 µM (top of the series).
In the case of `Nc1cccc([As](=O)(O)c2ccccc2)c1`, the activity, negative = inhibition is inactive: -7.75%.
Then `Nc1ccccc1[As](=O)(O)c1ccccc1`, with inactive: -3.37%; and `O=[As](O)(O)c1cccnc1`, with inactive: -1.13%; and `COc1cc(I)ccc1[As](=O)(O)O`, with inactive: -0.653%.
To `O=[As](O)(c1ccc(O)cc1)c1ccccc1O` belongs inactive: -19.4%.
Take `CCOC(=O)Nc1ccc([As](=O)(O)O)c(O)c1`: the activity, negative = inhibition was inactive: -5.75%.
`O=P(Nc1nc2ccc(Cl)cc2s1)(c1ccccc1)c1ccccc1`: the activity, negative = inhibition was inactive: -13%.
For the compound `O=[As](O)(c1ccccc1)c1ccc(O)cc1`, the activity, negative = inhibition is inactive: -12.2%.
